biological target: T1, RIP3 (Homo sapiens, UniProt Q9Y572); test: KINOMEscan binding assay, RIP3; conditions: equilibrium dissociation constant, class symbols
T1 construct: purchased DiscoverX (KINOMEscan service); host or cells: E. coli BL21-derived (T7 phage) or HEK293

By UniProt entry, the sequences of proteins in these tests, tags left out. Where a name states a change or a piece, a line headed by the entry shows the natural chain unless it says otherwise.
UniProt Q9Y572: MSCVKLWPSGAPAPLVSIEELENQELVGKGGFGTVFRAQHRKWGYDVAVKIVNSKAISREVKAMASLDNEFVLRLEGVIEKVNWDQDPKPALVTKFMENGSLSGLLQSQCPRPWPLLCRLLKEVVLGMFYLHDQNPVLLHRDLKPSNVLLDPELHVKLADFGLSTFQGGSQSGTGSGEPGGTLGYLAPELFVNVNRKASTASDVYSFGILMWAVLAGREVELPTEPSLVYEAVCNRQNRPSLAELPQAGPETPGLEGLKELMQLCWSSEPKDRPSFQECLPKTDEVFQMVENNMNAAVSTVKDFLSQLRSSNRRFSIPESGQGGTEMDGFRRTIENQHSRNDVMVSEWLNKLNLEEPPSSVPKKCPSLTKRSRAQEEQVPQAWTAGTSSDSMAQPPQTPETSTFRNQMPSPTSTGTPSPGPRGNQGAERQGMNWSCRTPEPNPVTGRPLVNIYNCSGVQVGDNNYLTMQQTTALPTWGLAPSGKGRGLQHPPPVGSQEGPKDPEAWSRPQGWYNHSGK

Row | SMILES | Kd [µM]
1 | NC(=O)c1c(-c2ccc(NS(=O)(=O)CC(F)(F)F)cc2OCc2ccc(F)cc2)n[nH]c1Nc1cnccn1 [Compound 139, 3-(2-((4-fluorobenzyl)oxy)-4-((2,2,2-trifluoroethyl)sulfonamido)phenyl)-5-(pyrazin-2-ylamino)-1H-pyrazole-4-carboxamide] | > 30
2 | CCS(=O)(=O)Nc1ccc(-c2n[nH]c(Nc3cnccn3)c2C(N)=O)cc1OCc1c(C)cc(F)cc1C [Compound 142, 3-(4-(ethylsulfonamido)-3-((4-fluoro-2,6-dimethylbenzyl)oxy)phenyl)-5-(pyrazin-2-ylamino)-1H-pyrazole-4-carboxamide] | > 30
3 | CCS(=O)(=O)Nc1ccc(-c2n[nH]c(Nc3cnc(C)cn3)c2C(N)=O)cc1OCc1ccc(F)c(Cl)c1 [Compound 150, 3-(3-((3-chloro-4-fluorobenzyl)oxy)-4-(ethylsulfonamido)phenyl)-5-((5-methylpyrazin-2-yl)amino)-1H-pyrazole-4-carboxamide] | 1 to 30
4 | NC(=O)c1c(-c2ccc(NS(=O)(=O)CC(F)(F)F)cc2)n[nH]c1Nc1ccc(C(F)(F)F)cn1 [Compound 153, 3-(4-((2,2,2-trifluoroethyl)sulfonamido)phenyl)-5-((5-(trifluoromethyl)pyridine-2-yl)amino)-1H-pyrazole-4-carboxamide] | > 30
5 | NC(=O)c1c(-c2ccc(NS(=O)(=O)CC(F)(F)F)c(OC3(c4ccccc4)CC3)c2)n[nH]c1Nc1cnccn1 [Compound 161, 3-(3-(1-phenylcyclopropoxy)-4-((2,2,2-trifluoroethyl)sulfonamido)phenyl)-5-(pyrazin-2-ylamino)-1H-pyrazole-4-carboxamide] | > 30
6 | NC(=O)c1c(-c2ccc(NS(=O)(=O)CC(F)(F)F)c(Oc3cccc(F)c3)c2)n[nH]c1Nc1cnccn1 [Compound 167, 3-(3-(3-fluorophenoxy)-4-((2,2,2-trifluoroethyl)sulfonamido)phenyl)-5-(pyrazin-2-ylamino)-1H-pyrazole-4-carboxamide] | > 30

Next, values leading:

Row | Kd [µM] | SMILES
7 | > 30 | COc1cnc(Nc2[nH]nc(-c3ccc(NS(=O)(=O)CC(F)(F)F)c(OCc4ccc(F)cc4)c3)c2C(N)=O)cn1 [Compound 143, 3-(3-((4-fluorobenzyl)oxy)-4-((2,2,2-trifluoroethyl)sulfonamido)phenyl)-5-((5-methoxypyrazin-2-yl)amino)-1H-pyrazole-4-carboxamide]
8 | > 30 | NC(=O)c1c(-c2ccc(NS(=O)(=O)CC(F)(F)F)c(Oc3ccc(F)cc3)c2)n[nH]c1Nc1cccc(C(F)(F)F)n1 [Compound 148, 3-(3-(4-fluorophenoxy)-4-((2,2,2-trifluoroethyl)sulfonamido)phenyl)-5-((6-(trifluoromethyl)pyridine-2-yl)amino)-1H-pyrazole-4-carboxamide]
9 | > 30 | Cc1cnc(Nc2[nH]nc(-c3ccc(NS(=O)(=O)CC(F)(F)F)c(OCc4ccc(F)cc4)c3)c2C(N)=O)cn1 [Compound 163, 3-(3-((4-fluorobenzyl)oxy)-4-((2,2,2-trifluoroethyl)sulfonamido)phenyl)-5-((5-methylpyrazin-2-yl)amino)-1H-pyrazole-4-carboxamide]
10 | > 30 | CCS(=O)(=O)Nc1ccc(-c2n[nH]c(Nc3cnccn3)c2C(N)=O)cc1OCc1ccc(Cl)c(F)c1 [Compound 166, 3-(3-((4-chloro-3-fluorobenzyl)oxy)-4-(ethylsulfonamido)phenyl)-5-(pyrazin-2-ylamino)-1H-pyrazole-4-carboxamide]
11 | > 30 | NC(=O)c1c(-c2ccc(NS(=O)(=O)CC(F)(F)F)c(OCc3ccc(F)cc3)c2)n[nH]c1Nc1cnccn1 [Compound 170, 3-(3-((4-fluorobenzyl)oxy)-4-((2,2,2-trifluoroethyl)sulfonamido)phenyl)-5-(pyrazin-2-ylamino)-1H-pyrazole-4-carboxamide]
12 | > 30 | CCS(=O)(=O)Nc1ccc(-c2n[nH]c(Nc3cccc(OC(F)(F)F)n3)c2C(N)=O)cc1OCc1ccc(F)cc1 [Compound 172, 3-(4-(ethylsulfonamido)-3-((4-fluorobenzyl)oxy)phenyl)-5-((6-(trifluoromethoxy)pyridine-2-yl)amino)-1H-pyrazole-4-carboxamide]

— patent US12583836B2 (Anaxis Pharma Pty Ltd, priority 2020, dated 2026)
